From patent US8846929B2, “Substituted-quinoxaline-type piperidine compounds and the uses thereof” (priority 2007, dated 2014)

Assays:
[1] = target: human opioid receptor-like (ORL-1) (Homo sapiens (Human), UniProt P41146); assay: In vitro ORL-1 receptor [35S]GTPγS functional assay; format: biochemical; details: mean ± SEM; for EC50: read-out: GTPγS ORL-1 EC50
[2] = target: kappa opioid receptor (Homo sapiens (Human), UniProt P41145); assay: In vitro kappa-opioid receptor [35S]GTPγS functional assay; format: biochemical; details: mean ± SEM; for EC50: read-out: GTPγS Opioid Receptor Kappa EC50

O=c1c(NC(CO)CO)nc2ccccc2n1C1CCN(C2CCCCCCC2)CC1
GTPγS ORL-1 Emax [1]: 78.3 ± 3.8% | EC50 [1]: 84.9 nM | GTPγS Opioid Receptor Kappa Emax [2]: 16.7 ± 0.3% | EC50 [2]: 6570 nM

CONC(=O)c1nc2ccccc2n(C2CCN(C3CCCCCCC3)CC2)c1=O
GTPγS ORL-1 Emax [1]: 79 ± 2.5% | GTPγS Opioid Receptor Kappa Emax [2]: 11.3 ± 1.5% | EC50 [2]: 1980 nM

NCCNc1nc2ccccc2n(C2CCN(C3CCCCCCC3)CC2)c1=O
GTPγS ORL-1 Emax [1]: 39 ± 1.5% | EC50 [1]: 79.1 nM | GTPγS Opioid Receptor Kappa Emax [2]: 12 ± 0.6% | EC50 [2]: 1520 nM

O=C(O)c1nc2ccccc2n([C@H]2C[C@H]3CC[C@@H](C2)N3C2CCCCCCCCCC2)c1=O
GTPγS ORL-1 Emax [1]: 101.3 ± 5.7% | GTPγS Opioid Receptor Kappa Emax [2]: 11.7 ± 2.3%

CC(C)(C)OC(=O)N1CC2CN(c3nc4ccccc4n(C4CCN(C5CCCCCCC5)CC4)c3=O)CC2C1 (stereo not drawn)
GTPγS ORL-1 Emax [1]: 83 ± 1.5% | EC50 [1]: 1000 nM | GTPγS Opioid Receptor Kappa Emax [2]: 30.5 ± 2.9% | EC50 [2]: 846 nM

NC1CCN(c2nc3ccccc3n(C3CCN(C4CCCCCCC4)CC3)c2=O)CC1
GTPγS ORL-1 Emax [1]: 64 ± 3.6% | EC50 [1]: 440 nM | GTPγS Opioid Receptor Kappa Emax [2]: 31 ± 1.2% | EC50 [2]: 690 nM

O=C(O)[C@H](CO)Nc1nc2ccccc2n(C2CCN(C3CCCCCCC3)CC2)c1=O
GTPγS ORL-1 Emax [1]: 48.7 ± 1.9% | EC50 [1]: 113 nM | GTPγS Opioid Receptor Kappa Emax [2]: 14 ± 1% | EC50 [2]: 2540 nM

CC(C)(Nc1nc2ccccc2n([C@H]2C[C@H]3CC[C@@H](C2)N3C2CCCCCCC2)c1=O)C(=O)O
GTPγS ORL-1 Emax [1]: 31.3 ± 1.8% | EC50 [1]: 517 nM | GTPγS Opioid Receptor Kappa Emax [2]: 7.7 ± 1.2% | EC50 [2]: 5960 nM

O=c1c(N2CC[C@@H](O)C2)nc2ccccc2n1C1CCN(C2CCCCCCC2)CC1
GTPγS ORL-1 Emax [1]: 74.3 ± 6.0% | GTPγS Opioid Receptor Kappa Emax [2]: 3.3 ± 0.7% | EC50 [2]: 2270 nM

O=c1c(N2CCNCC2)nc2ccccc2n1C1CCN(C2CCCCCCC2)CC1
GTPγS ORL-1 Emax [1]: 34 ± 1.5% | EC50 [1]: 553 nM | GTPγS Opioid Receptor Kappa Emax [2]: 39.8 ± 4.8% | EC50 [2]: 2230 nM

CC(C)(C)OC(=O)NCCNc1nc2ccccc2n(C2CCN(C3CCCCCCC3)CC2)c1=O
GTPγS ORL-1 Emax [1]: 67.3 ± 1.9% | GTPγS Opioid Receptor Kappa Emax [2]: 14.7 ± 1.5% | EC50 [2]: 9780 nM

CC(C)CC(C)N1[C@@H]2CC[C@H]1C[C@@H](n1c(=O)c(C(=O)O)nc3ccccc31)C2 (stereo partly drawn)
EC50 [1]: 925 nM | EC50 [2]: 1170 nM

N[C@H]1CCN(c2nc3ccccc3n(C3CCN(C4CCCCCCC4)CC3)c2=O)C1
GTPγS ORL-1 Emax [1]: 78 ± 10% | EC50 [1]: 88 nM | GTPγS Opioid Receptor Kappa Emax [2]: 12.7 ± 4.1% | EC50 [2]: 285 nM

COC(=O)c1ccc2c(c1)CN(c1nc3ccccc3n(C3CCN(C4CCCCCCC4)CC3)c1=O)CC2
GTPγS ORL-1 Emax [1]: 38 ± 3.8% | GTPγS Opioid Receptor Kappa Emax [2]: 20.33 ± 1.9% | EC50 [2]: 980 nM

CCOC(=O)c1nc2ccccc2n([C@@H]2C[C@H]3CCC[C@@H](C2)N3C/C=C2\CCC3CC2C3(C)C)c1=O
EC50 [1]: 37.6 nM | EC50 [2]: > 20000 nM

CS(=O)(=O)NC1CCN(c2nc3ccccc3n(C3CCN(C4CCCCCCC4)CC3)c2=O)CC1
GTPγS ORL-1 Emax [1]: 92.7 ± 3.5% | GTPγS Opioid Receptor Kappa Emax [2]: 9.67 ± 1.5% | EC50 [2]: 3970 nM

COc1ccc(Nc2nc3ccccc3n(C3CCN(C4CCCCCCC4)CC3)c2=O)cn1
GTPγS ORL-1 Emax [1]: 43 ± 2.1% | EC50 [1]: 1080 nM | GTPγS Opioid Receptor Kappa Emax [2]: 26 ± 7% | EC50 [2]: 187 nM
